Laboratory results published in PMC8838991, “Exploring the Synergistic Anticancer Potential of Benzofuran–Oxadiazoles and Triazoles: Improved Ultrasound- and Microwave-Assisted Synthesis, Molecular Docking, Hemolytic, Thrombolytic and Anticancer Evaluation of Furan-Based Molecules” (Molecules, 2022).

Experiments:
[1] = tested on: red blood cells (RBCs); test: Hemolysis assay; conditions: sample solution in DMSO, 37 °C, 60 min, ABTS positive control, triplicate
[2] = tested on: A549 lung cancer cell line; test: MTT assay, cell viability; format: cell-based, human
Description: The A549 cell line was treated with synthesized compounds in a final concentration of DMSO (dimethyl sulfoxide) of less than 1%.
The cytotoxic therapeutic potential of synthesized structural hybrids was evaluated usinga standard MTT (3-(4,5-dimethylthiazol-2-yl)-2,5-diphenyltetrazolium bromide) assay. The cells of theA549 cell line were grown, overnight, in a microculture of 96-well plates. […] Following this, 150 μL of control DMSO was added to formazan crystals.The percentage of cell viability was determined viaquantified absorbance in a microplate readerat 490 nm wavelength.

SMILES	Percentage Hemolysis ± SD [1]	Percentage Cell viability A549 (Lung Cancer) ± SD ([2]; A549, 48 h, MTT, mean ± SD in triplicate)	anticancer activity of reference drugs as quoted in SAR text ([2]; A549, MTT, values quoted for comparison)
CCn1c(=NN=c2sc3cc(S(=O)(=O)O)ccc3n2CC)sc2cc(S(=O)(=O)O)ccc21 [ABTS, reference compound]	95.9%	–	–
C[C@@H](Oc1cc(-c2cnn(C3CCNCC3)c2)cnc1N)c1c(Cl)ccc(F)c1Cl [Crizotinib, crizotinib, reference compound]	–	28.22 ± 3.88%	28.22 ± 3.88 µM
